Source: PubChem BioAssay AID2551 (National Center for Advancing Translational Sciences (NCATS), 2010)
Where “and” joins values, the source holds several entries; their conditions need not be identical. Identical values can stand only once. The list shows a part of the results, in another mix than the full data. Records with an inconclusive call do not appear. Calls of active or inactive are those of the source. Calls come from the whole dose curve; as a rule, active = well fitted inhibition curve with a large enough effect; inconclusive = small, poorly fitted or top-dose-only effect, or effect the other way; inactive = no such curve, though single readings can be large or run the other way.

The chains behind the UniProt entries cited, without tags or fusion partners. Where a name states a change or a piece, a line headed by the entry shows the natural chain unless it says otherwise.
UniProt P51450: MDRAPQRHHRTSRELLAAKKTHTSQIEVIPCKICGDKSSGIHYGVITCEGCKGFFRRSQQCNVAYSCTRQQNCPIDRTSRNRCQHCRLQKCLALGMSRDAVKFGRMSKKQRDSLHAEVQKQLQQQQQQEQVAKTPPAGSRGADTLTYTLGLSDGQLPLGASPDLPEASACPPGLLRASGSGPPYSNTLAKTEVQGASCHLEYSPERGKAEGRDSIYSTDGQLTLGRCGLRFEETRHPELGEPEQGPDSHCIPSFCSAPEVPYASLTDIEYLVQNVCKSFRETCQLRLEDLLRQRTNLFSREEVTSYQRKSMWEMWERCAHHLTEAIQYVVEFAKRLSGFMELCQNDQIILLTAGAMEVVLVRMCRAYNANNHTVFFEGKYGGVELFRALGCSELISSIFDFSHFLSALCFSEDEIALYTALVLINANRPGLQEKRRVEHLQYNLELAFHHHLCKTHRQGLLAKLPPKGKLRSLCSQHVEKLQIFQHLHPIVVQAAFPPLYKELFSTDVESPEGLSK

molecular target: Nuclear receptor ROR-gamma (Mus musculus) (UniProt P51450); assay: qHTS for inhibitors of ROR gamma transcriptional activity; settings: Drosophila S2 Gal4-RORgamma UAS-luciferase reporter, 20 h; at 53.6 µM (top of the series) unless noted; note: nearly all actives have a fitted effect of over 60% in size
% is set by controls: 0 for no effect and ±100 for the full control effect.

SMILES	activity change, negative = inhibition
CN1C2CC(OC(=O)C(CO)c3ccccc3)CC1C1OC12 (stereo unspecified)	inactive: 31.5% and inactive: -19.1%
CN1[C@H]2CC(OC(=O)[C@H](CO)c3ccccc3)C[C@H]1[C@H]1O[C@H]12 (stereo partly specified)	inactive: -2.91% and inactive: -0.274%
CN1[C@@H]2CC(OC(=O)[C@H](CO)c3ccccc3)C[C@@H]1[C@H]1O[C@H]12 (stereo partly specified)	inactive: 2.35%
CN1[C@@H]2CC(OC(=O)[C@@H](CO)c3ccccc3)C[C@@H]1[C@H]1O[C@H]12 (stereo partly specified)	inactive: -8.02% [at 10 µM]
CN1[C@@H]2CC(OC(=O)[C@H](CO)c3ccccc3)C[C@H]1[C@@H]1O[C@@H]12 (stereo partly specified)	inactive: 13% and inactive: -23.2%
CN1C2CC(OC(=O)C(CO)c3ccccc3)C[C@@H]1[C@H]1OC21 (stereo partly specified)	inactive: -2.23%
